Assay results taken from US11471417B2 (Small Pharma Ltd, priority 2020, dated 2022).

Experiment: In vitro human mitochondrial fraction intrinsic clearance of SPL026 and SPL028 analogues
Conditions: liver mitochondrial fraction

## [2H]C([2H])([2H])N(C([2H])([2H])[2H])C([2H])([2H])Cc1c[nH]c2ccccc12 [SPL028viii, α,α-dideutero-N,N-bis(trideutero)dimethyltryptamine]
Half-Life R1, human liver mitochondrial fraction, replicate R1
  half-life: 2.02 h
Half-life, 0.5 mg/mL human liver mitochondrial fraction, first experiment r7-r12, repeat r13-r20
  half-life: 2.13 h
